Assay: Physical/chemical properties of XBC4 (GlykoSol)

Structure (SMILES): CCCCOCCOC(=O)OCCOCCCC [XBC4, bis(2-ButoxyEthyl Carbonate)]
- Lower Explosive Limit (LEL %): 0.40%
- Upper Explosive Limit (UEL %): 7.31%

From patent US10975016B2, “Solvent compounds for use as glycol ether replacements” (TBF ENVIRONMENTAL TECHNOLOGY INC., priority 2017, dated 2021)
